For test [1], the target named is beta-catenin/TCF4 interaction (Homo sapiens, UniProt P35222). Nature of the test: cell-based. On the set-up: host or cells: HEK293. The conditions noted are these: NanoBRET Abs IC50 (uM), absolute IC50. On the technique in general: Bioluminescence resonance energy transfer reports proximity on the nanometre scale.
Test [2] concerns the target T1, full-length B-Catenin (Uniprot ID P35222) (Homo sapiens, UniProt P35222).
T1 construct: 10 nM full-length B-Catenin (Uniprot ID P35222)
Kind of test: biochemical. It counts as binding. The conditions noted are these: beta-Catenin FP IC50 (nM), competition fluorescence polarization.

Sequences of proteins named here, by UniProt entry; tags and fusion partners are left off.
UniProt P35222, whole entry: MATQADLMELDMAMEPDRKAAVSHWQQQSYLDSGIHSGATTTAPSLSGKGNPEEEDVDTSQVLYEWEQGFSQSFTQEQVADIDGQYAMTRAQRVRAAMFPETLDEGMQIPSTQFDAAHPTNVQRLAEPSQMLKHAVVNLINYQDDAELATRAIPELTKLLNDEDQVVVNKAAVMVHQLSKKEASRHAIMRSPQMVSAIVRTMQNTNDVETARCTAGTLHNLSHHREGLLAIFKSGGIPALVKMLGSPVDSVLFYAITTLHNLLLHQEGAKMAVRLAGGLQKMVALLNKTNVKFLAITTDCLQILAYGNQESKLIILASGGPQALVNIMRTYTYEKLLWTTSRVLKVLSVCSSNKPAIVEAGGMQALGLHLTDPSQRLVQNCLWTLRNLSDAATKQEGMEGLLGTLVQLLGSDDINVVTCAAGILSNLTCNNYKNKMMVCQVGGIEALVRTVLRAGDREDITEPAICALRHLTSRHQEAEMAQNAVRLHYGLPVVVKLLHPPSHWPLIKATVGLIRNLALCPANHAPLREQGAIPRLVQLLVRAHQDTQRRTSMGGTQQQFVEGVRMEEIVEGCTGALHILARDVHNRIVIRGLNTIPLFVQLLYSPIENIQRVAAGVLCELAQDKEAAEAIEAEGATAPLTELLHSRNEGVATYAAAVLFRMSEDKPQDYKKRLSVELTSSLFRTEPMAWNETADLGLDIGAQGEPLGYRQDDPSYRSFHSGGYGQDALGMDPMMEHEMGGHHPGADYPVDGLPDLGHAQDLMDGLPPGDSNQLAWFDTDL

Where only a bound is given, the exact number is not on record here.

The term IC50 denotes the concentration needed to halve the response being measured.

With `CC(=O)N1CCC[C@]12CC=CCCCC1(CCCC=CCCCOC(=O)N3CC[C@@]4(C3)NC(=O)[C@H](CCCCNC(=O)CC[C@@H](C(=O)N[C@@H](C)C(N)=O)NC(=O)[C@H](Cc3csc5ccccc35)NC(=O)[C@H](Cc3ccsc3)NC4=O)NC(=O)[C@H](Cc3ccccc3)NC(=O)[C@H](C(C)C)NC(=O)C(C)(C)NC(=O)[C@H](Cc3cccc(C(=O)O)c3)NC(=O)[C@H](CC(=O)O)NC1=O)NC(=O)[C@H](CC(C)(C)C)NC(=O)[C@H](CC(=O)O)NC2=O` (single isomer, unassigned) [I-447, Ac-PL3-Asp-Npg-B5-Asp-3COOHF-Aib-Val-Phe-Lys*3-PyrS2-3Thi-BztA-GlnR*3-Ala-NH2], the values for the IC50 in test [1] and in test [2] were more than 10 µM and less than 50 nM, respectively.

In the case of `CC(=O)N1CCC[C@]12CC=CCCCC1(CCCC=CCCCOC(=O)N3CC[C@@]4(C3)NC(=O)[C@H](CCCCNC(=O)CC[C@@H](C(=O)N[C@@H](C)C(N)=O)NC(=O)[C@H](Cc3csc5ccccc35)NC(=O)[C@H](Cc3ccsc3)NC4=O)NC(=O)[C@H](Cc3ccccc3)NC(=O)[C@H](CC(C)C)NC(=O)C(C)(C)NC(=O)[C@H](Cc3cccc(C(=O)O)c3)NC(=O)[C@H](CC(=O)O)NC1=O)NC(=O)[C@H](CC(C)(C)C)NC(=O)[C@H](CC(=O)O)NC2=O` (single isomer, unassigned) [I-449, Ac-PL3-Asp-Npg-B5-Asp-3COOHF-Aib-Leu-Phe-Lys*3-PyrS2-3Thi-BztA-GlnR*3-Ala-NH2], the IC50 in test [1] was more than 10 µM; in test [2] it was less than 50 nM.

As for `CC(=O)N1CCC[C@]12CC=CCCCC1(CCCC=CCCCOC(=O)N3CC[C@@]4(C3)NC(=O)[C@H](CCCCNC(=O)CC[C@@H](C(=O)N[C@@H](C)C(N)=O)NC(=O)[C@H](Cc3csc5ccccc35)NC(=O)[C@H](Cc3ccsc3)NC4=O)NC(=O)[C@H](Cc3ccccc3)NC(=O)[C@H](CCC(N)=O)NC(=O)C(C)(C)NC(=O)[C@H](Cc3cccc(C(=O)O)c3)NC(=O)[C@H](CC(=O)O)NC1=O)NC(=O)[C@H](CC(C)(C)C)NC(=O)[C@H](CC(=O)O)NC2=O` (single isomer, unassigned) [I-451, Ac-PL3-Asp-Npg-B5-Asp-3COOHF-Aib-Gln-Phe-Lys*3-PyrS2-3Thi-BztA-GlnR*3-Ala-NH2], the IC50 in test [1] is more than 10 µM; in test [2] it was less than 50 nM.

On to `CC(=O)N1CCC[C@]12CC=CCCCC1(CCCC=CCCCOC(=O)N3CC[C@@]4(C3)NC(=O)[C@H](CCCCNC(=O)CC[C@@H](C(=O)N[C@@H](C)C(N)=O)NC(=O)[C@H](Cc3csc5ccccc35)NC(=O)[C@H](Cc3ccsc3)NC4=O)NC(=O)[C@H](Cc3ccccc3)NC(=O)[C@H](CCCCN)NC(=O)C(C)(C)NC(=O)[C@H](Cc3cccc(C(=O)O)c3)NC(=O)[C@H](CC(=O)O)NC1=O)NC(=O)[C@H](CC(C)(C)C)NC(=O)[C@H](CC(=O)O)NC2=O` (single isomer, unassigned) [I-454, Ac-PL3-Asp-Npg-B5-Asp-3COOHF-Aib-Lys-Phe-Lys*3-PyrS2-3Thi-BztA-GlnR*3-Ala-NH2], for which the IC50 was more than 10 µM in test [1] and less than 50 nM in test [2].

With `CC(=O)N1CCC[C@]12CC=CCCCC1(CCCC=CCCCOC(=O)N3CC[C@@]4(C3)NC(=O)[C@H](CCCCNC(=O)CC[C@@H](C(=O)N[C@@H](C)C(N)=O)NC(=O)[C@H](Cc3csc5ccccc35)NC(=O)[C@H](Cc3ccsc3)NC4=O)NC(=O)[C@H](Cc3ccccc3)NC(=O)[C@H](C)NC(=O)[C@@](C)(Cc3ccccc3)NC(=O)[C@H](Cc3cccc(C(=O)O)c3)NC(=O)[C@H](CC(=O)O)NC1=O)NC(=O)[C@H](CC(C)(C)C)NC(=O)[C@H](CC(=O)O)NC2=O` (single isomer, unassigned) [I-456, Ac-PL3-Asp-Npg-B5-Asp-3COOHF-aMeDF-Ala-Phe-Lys*3-PyrS2-3Thi-BztA-GlnR*3-Ala-NH2], the IC50 in test [1] is more than 10 µM; in test [2], less than 50 nM.

As to `CC(=O)N1CCC[C@]12CC=CCCCC1(CCCC=CCCCOC(=O)N3CC[C@@]4(C3)NC(=O)[C@H](CCCCNC(=O)CC[C@@H](C(=O)N[C@@H](CC(C)C)C(=O)N[C@@H](CO)C(=O)N[C@@H](CC(C)C)C(N)=O)NC(=O)[C@H](Cc3csc5ccccc35)NC(=O)[C@H](Cc3ccsc3)NC4=O)NC(=O)[C@H](Cc3ccccc3)NC(=O)[C@H](C)NC(=O)C(C)(C)NC(=O)[C@H](Cc3cccc(C(=O)O)c3)NC(=O)[C@H](CC(=O)O)NC1=O)NC(=O)[C@H](CC(C)(C)C)NC(=O)[C@H](CC(=O)O)NC2=O` (single isomer, unassigned) [I-465, Ac-PL3-Asp-Npg-B5-Asp-3COOHF-Aib-Ala-Phe-Lys*3-PyrS2-3Thi-BztA-GlnR*3-Leu-Ser-Leu-NH2], the results for the IC50 in test [1] and in test [2] were 1.5 to 3 µM and less than 50 nM, respectively.

Turning to `CC(=O)N1CCC[C@]12CC=CCCCC1(CCCC=CCCCOC(=O)N3CC[C@@]4(C3)NC(=O)[C@H](CCCCNC(=O)CC[C@@H](C(=O)N[C@H](CC(C)C)C(=O)N[C@@H](CO)C(=O)N[C@@H](CC(C)C)C(N)=O)NC(=O)[C@H](Cc3csc5ccccc35)NC(=O)[C@H](Cc3ccsc3)NC4=O)NC(=O)[C@H](Cc3ccccc3)NC(=O)[C@H](C)NC(=O)C(C)(C)NC(=O)[C@H](Cc3cccc(C(=O)O)c3)NC(=O)[C@H](CC(=O)O)NC1=O)NC(=O)[C@H](CC(C)(C)C)NC(=O)[C@H](CC(=O)O)NC2=O` (single isomer, unassigned) [I-467, Ac-PL3-Asp-Npg-B5-Asp-3COOHF-Aib-Ala-Phe-Lys*3-PyrS2-3Thi-BztA-GlnR*3-dLeu-Ser-Leu-NH2], the IC50 is 1.5 to 3 µM in test [1] and less than 50 nM in test [2].

With `CCCC[C@@H]1NC(=O)[C@]23CCN(C2)C(=O)OCCCC=CCCCC2(CCCC=CC[C@]4(CCCN4C(C)=O)C(=O)N[C@@H](CC(=O)O)C(=O)N[C@@H](CC(C)(C)C)C(=O)N2)C(=O)N[C@@H](CC(=O)O)C(=O)N[C@@H](Cc2cccc(C(=O)O)c2)C(=O)NC(C)(C)C(=O)N[C@@H](C)C(=O)N[C@@H](Cc2ccccc2)C(=O)N[C@@H](CCCCNC(=O)CC[C@@H](C(=O)N[C@@H](C)C(N)=O)NC(=O)[C@H](Cc2ccc(Cl)c(Cl)c2)NC1=O)C(=O)N3` (single isomer, unassigned) [I-473, Ac-PL3-Asp-Npg-B5-Asp-3COOHF-Aib-Ala-Phe-Lys*3-PyrS2-nLeu-34ClF-GlnR*3-Ala-NH2], the results for the IC50 in test [1] and in test [2] were 3 to 10 µM and less than 50 nM, respectively.

`CC(=O)N1CCC[C@]12CC=CCCCC1(CCCC=CCCCOC(=O)N3CC[C@@]4(C3)NC(=O)[C@H](CCCCNC(=O)CC[C@@H](C(=O)N[C@@H](C)C(N)=O)NC(=O)[C@H](Cc3ccc(Cl)c(Cl)c3)NC(=O)[C@H](CC3CCCC3)NC4=O)NC(=O)[C@H](Cc3ccccc3)NC(=O)[C@H](C)NC(=O)C(C)(C)NC(=O)[C@H](Cc3cccc(C(=O)O)c3)NC(=O)[C@H](CC(=O)O)NC1=O)NC(=O)[C@H](CC(C)(C)C)NC(=O)[C@H](CC(=O)O)NC2=O` (single isomer, unassigned) [I-475, Ac-PL3-Asp-Npg-B5-Asp-3COOHF-Aib-Ala-Phe-Lys*3-PyrS2-CypA-34ClF-GlnR*3-Ala-NH2]: the IC50 in test [1] was 3 to 10 µM; in test [2] it was less than 50 nM.

These data come from patent US20240360179A1, “STAPLED PEPTIDES AND METHODS THEREOF” (FOG PHARMACEUTICALS, INC., priority 2021, published 2024).
